Molecules are shown by their SMILES.

The results in this text go back to patent US4144228A, “Methionine^5 -enkephalin sulfoxides and sulfones” (G. D. Searle & Co., priority 1976, dated 1979).

This experiment relates to opiate receptor sites. The conditions noted are these: guinea pig whole brain membrane fraction, 4° C., in the absence of sodium ion.

`CCC(=O)C(CC(C)N(C)C)(c1ccccc1)c1ccccc1` (centres unmarked) [methadone]: the “ID50 concentration of the 3H-naloxone binding” value is recorded as 2.4 × 10^-8. The figure for `CN1CC[C@]23c4c5ccc(O)c4O[C@H]2[C@@H](O)C=C[C@H]3[C@H]1C5` [morphine] is 1.2 × 10^-8.
